Columns and labels:
[1] = test system: hCMEC/D3 cells as TfR expressing BBB-derived cell line; assay: FACS analysis of simultaneous cell surface and payload binding; type: cell-based, human; settings: Dig-Cy5 as fluorescent payload
Description: To enable blood brain barrier-shuttle functionality of the bispecific antibodies, they must simultaneously bind to the blood brain barrier receptor on endothelial cells of the blood brain barrier, and to the haptenylated payloads to be shuttled. To evaluate this functionality of the hapten-binding bispecific antibodies as reported herein, simultaneous cell surface and payload binding was addressed by FACS analyses. For these analyses, cell binding of the blood brain barrier-shuttle module (=bispecific antibody) was detected by phytoerythrin-labeled IgG recognizing secondary antibodies. Simultaneous payload binding was detected by application of a haptenylated fluorescent payload (digoxigenylated Cy5; DIG-Cy5 (see above)). The results of the FACS analysis, using hCMEC/D3 cells as TfR expressing BBB-derived cell line and Dig-Cy5 as fluorescent payload are shown in FIG. 49: both transferrin receptor binding bispecific antibodies bind to hCMEC/D3 as shown by the anti-IgG-PE associated signals. Similarly, both bispecific antibodies also and simultaneously bind Dig-Cy5 as shown by cell-associated Cy5 attributable signals.

[2] = test system: brain endothelial cells (hCMEC/D3); assay: Transwell assay of cell binding, transcytosis and release of shuttle modules (IgG ELISA); type: cell-based, human; settings: incubated apically 1 h at 37° C., antibody quantified by IgG ELISA over time
Description: We used brain endothelial cells (hCMEC/D3) to investigate cell binding and transcytosis of the shuttle modules as reported herein. Previous studies (Crepin et al., 2010; Lesley et al., 1989, WO 2012/075037, WO 2014/033074) reported that valency and affinity of TfR binding antibodies influence efficacy of binding to, transcytosis though, and release from endothelial cells of the blood brain barrier. To investigate cell binding and transcytosis in hCMEC/D3, hCMEC/D3 cells cultured on filter inserts were incubated apically with the bispecific antibody or parent antibody (without hapten-binding scFvs as controls) for 1 h at 37° C. Cell monolayers were washed at RT in serum-free medium apically (400 μl) and basolaterally (1600 μl) three times for 3-5 min. each. All wash volumes were collected to monitor efficiency of removal of the unbound ligand or antibody. Pre-warmed medium was added to the apical chamber and the filters transferred to a fresh 12 well plate (blocked overnight with PBS containing 1% BSA) containing 1600 μl pre-warmed medium. At this point, cells on some of the filters were lysed in 500 μl RIPA buffer (Sigma, Munich, Germany, # R0278) in order to determine specific uptakes. […] The content of antibody in the samples was quantified using a highly sensitive IgG ELISA.

B1: CD33-Dig: control bispecific antibody recognizing an antigen not present in detectable amounts on hCMEC/D3 (antibody)
heavy: EVQLVQSGAEVKKPGSSVKVSCKASGYTITDSNIHWVRQAPGQSLEWIGYIYPYNGGTDYNQKFKNRATLTVDNPTNTAYMELSSLRSEDTAFYYCVNGNPWLAYWGQGTLVTVSSASTKGPSVFPLAPSSKSTSGGTAALGCLVKDYFPEPVTVSWNSGALTSGVHTFPAVLQSSGLYSLSSVVTVPSSSLGTQTYICNVNHKPSNTKVDKKV[skipping human IgG1 Fc]GGGGSGGGGSQVQLVESGGGLVKPGGSLRLSCAASGFTFSDYAMSWIRQAPGKCLEWVSSINIGATYIYYADSVKGRFTISRDNAKNSLYLQMNSLRAEDTAVYYCARPGSPYEYDKAYYSMAYWGQGTTVTVSSGGGGSGGGGSGGGGSDIQMTQSPSSLSASVGDRVTITCRASQDIKNYLNWYQQKPGKAPKLLIYYSSTLLSGVPSRFSGSGSGTDFTLTISSLQPEDFATYYCQQSITLPPTFGCGTKVEIK
light: DIQLTQSPSTLSASVGDRVTITCRASESLDNYGIRFLTWFQQKPGKAPKLLMYAASNQGSGVPSRFSGSGSGTEFTLTISSLQPDDFATYYCQQTKEVPWSFGQGGTKVEVKEIKRTVAAPSVFIFPPSDEQLKSGTASVVCLLNNFYPREAKVQWKVDNALQSGNSQESVTEQDSKDSTYSLSSTLTLSKADYEKHKVYACEVTHQGLSSPVTKSFNRGEC
In the case of B1, the “cell binding (anti-IgG-PE signals) and simultaneous Dig-Cy5 binding (cell-associated Cy5 signals)” value [1] is reported as “not generate relevant signals with anti-IgG antibody nor with Dig-Cy5” and the “binding to cells and release to apical or basolateral compartments” value [2] is reported as “do not bind to these cells and are therefore also not released over time into apical or basolateral compartments”.
